# This is a selection; strong and weak results do not stand in their true shares. Some results for these compounds are left out of this collection, so the calls shown say nothing about other tests. The source made the active and inactive calls. Rule as the data show it: active = inhibition above about 43%; inactive = the rest.
# Protein sequences, listed by entry. Tags and fused reporters are not part of them.
# UniProt Q4J6C6, whole entry: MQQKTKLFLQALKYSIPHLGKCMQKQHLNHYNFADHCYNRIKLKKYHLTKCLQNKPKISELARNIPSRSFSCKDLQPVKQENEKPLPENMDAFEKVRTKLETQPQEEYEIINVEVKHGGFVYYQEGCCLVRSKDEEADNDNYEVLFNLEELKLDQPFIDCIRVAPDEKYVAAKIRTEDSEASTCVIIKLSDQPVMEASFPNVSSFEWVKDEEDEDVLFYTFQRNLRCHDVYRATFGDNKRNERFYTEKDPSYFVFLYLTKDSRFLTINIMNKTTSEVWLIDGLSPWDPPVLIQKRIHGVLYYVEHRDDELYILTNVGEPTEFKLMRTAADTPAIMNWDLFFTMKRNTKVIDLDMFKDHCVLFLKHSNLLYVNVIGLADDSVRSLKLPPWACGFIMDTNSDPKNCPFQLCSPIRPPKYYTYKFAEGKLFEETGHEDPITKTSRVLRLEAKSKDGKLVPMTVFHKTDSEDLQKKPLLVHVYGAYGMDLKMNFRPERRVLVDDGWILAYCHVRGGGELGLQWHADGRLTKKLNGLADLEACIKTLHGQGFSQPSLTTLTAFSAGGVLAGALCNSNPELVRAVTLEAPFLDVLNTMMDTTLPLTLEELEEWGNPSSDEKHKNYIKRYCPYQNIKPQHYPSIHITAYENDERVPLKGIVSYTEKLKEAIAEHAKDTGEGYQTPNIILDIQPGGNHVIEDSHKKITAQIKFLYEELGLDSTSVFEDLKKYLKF
# Biological target: Prolyl endopeptidase-like (Homo sapiens) (UniProt Q4J6C6)
# Assay: human PREPL activity-probe blockers – biochemical, fluorescence polarization, primary screen (AID 2751);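 also: 0% = enzyme with DMSO and 100% = wells lacking enzyme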
# Conditions: recombinant PREPL, fluorescence polarization activity-based probe; at 5.96 µM; hits give high values
row,SMILES,inhibition
1,O=C(NCC1(N2CCCCC2)CCCCC1)c1cccc(Br)c1,inactive: 42.4%
2,CCN1CCCC(OC(=O)C2(O)c3ccccc3C=Cc3ccccc32)C1 (centres undefined),inactive: 1.94%
3,Cc1cc(C(=O)NCC2(N3CCCCC3)CCCCC2)ccc1[N+](=O)[O-],inactive: 35.6%
4,COc1ccc(C(=O)NCC2(N(C)C)CCCCC2)cc1,inactive: 10.9%
5,O=C(NCC1(N2CCCCC2)CCCCC1)c1cc(F)c(F)cc1Cl,inactive: -3.79%
6,C=CCN1CCN(CCOC(=O)C(O)(c2ccccc2)c2ccccc2)CC1,inactive: -0.89%
7,CN(C)c1ccc(C(=O)NCC2(N(C)C)CCCCC2)cc1,inactive: -1.07%
8,CN(C)C1CCCC1OC(=O)C(O)(c1ccccc1)c1ccccc1 (centres undefined),inactive: 0.99%
9,Cc1ccccc1C(=O)NCC1(N2CCCCC2)CCCCC1,inactive: 2.82%
10,Cc1ccc(C(=O)NCC2(N3CCCCC3)CCCCC2)cc1,inactive: 24.4%
11,CC(C)N1C(=O)CC2(CCN(CCOC(=O)C(O)(c3ccccc3)c3ccccc3)CC2)C1=O,inactive: -3.87%
12,COc1cc(SC)ccc1C(=O)NCC1(N(C)C)CCCCC1,inactive: -1.27%
13,CCN(CC)CC(C)C(C)OC(=O)C(O)(c1ccccc1)c1ccccc1 (centres undefined),active: 49%
14,CN1[C@@H]2CC[C@H]1CC(OC(=O)C(O)(c1ccccc1)c1ccccc1)C2 (some centres undefined),inactive: 4.35%
15,O=C(NCC1(N2CCCCC2)CCCCC1)c1cc([N+](=O)[O-])ccc1Cl,inactive: 20.9%
16,CN(C)c1cccc(C(=O)NCC2(N(C)C)CCCCC2)c1,inactive: 7.28%
17,CC(C)Oc1ccc(C(=O)NCC2(N(C)C)CCCCC2)cc1,inactive: 2.17%
18,COc1ccc(Br)c(C(=O)NCC2(N3CCCCC3)CCCCC2)c1,inactive: 20.9%
19,O=C(OC1CN2CCC1CC2)C(CO)(c1ccccc1)c1ccccc1 (centres undefined),inactive: 26.2%
20,O=C(NCC1(N2CCCCC2)CCCCC1)c1cccc(Cl)c1,inactive: 18.5%
21,COc1ccc(Cl)cc1C(=O)NCC1(N(C)C)CCCCC1,inactive: 17.8%
22,COc1cccc(C(=O)NCC2(N3CCCCC3)CCCCC2)c1,inactive: 15%
23,COc1cc(C(=O)NCC2(N(C)C)CCCCC2)c([N+](=O)[O-])cc1OC,inactive: 0.43%
24,CN(C)C1(CNC(=O)c2ccc(Br)cc2)CCCCC1,inactive: -6.79%

# — PubChem BioAssay AID2751 (The Scripps Research Institute Molecular Screening Center, 2010)
